Reference: patent US20220243210A1, “ANGIOTENSIN II TYPE 1 RECEPTOR TARGETED OLIGONUCLEOTIDES AND USES THEREOF” (Ionis Pharmaceuticals, Inc., priority 2019, published 2022)

Assays:
Format in all cases: cell-based
[1] = target: T1, human AGTR1 (Homo sapiens, UniProt P30556); experiment: AGTR1 signaling, IP-One Gq kit (IP1 accumulation), HEK-AGTR1 FAP cells; settings: for IP1 accumulation: HEK-AGTR1 FAP cells, 90 minutes
T1 construct: host or cells: HEK293 (HEK-AGTR1 FAP cells)
Method: Activated AGTR1 couples to the Gαq subunit of heterotrimeric G proteins, which activates the phospholipase C (PLC) and subsequently inositol 1,4,5-trisphosphate (IP3) signaling cascade. AGTR1 signaling was measured using an IP-One Gq kit (cisbio #62IPAPEB). The kit detects the accumulation of inositol monophosphate (IP1), a stable downstream metabolite of IP3 induced by activation of a phospholipase C (PLC) cascade.
An additional control compound, AngII, which consists of the peptide motif […], was also tested. […] AGTR1 activation was measured using the IP-One Gq kit.

[2] = test system: human MALAT1 RNA; experiment: MALAT1 RNA reduction in HEK-AGTR1 FAP cells, free uptake, 24 hours
Method: (§1) HEK293 cells expressing FAP tagged human AGTR1 (HEK-AGTR1 FAP cells from Spectragenetics) were treated with Compound Nos. 556089, 1229761, and 1229762, described herein above, by free uptake at the concentrations detailed in Table 3 for 24 hours. At the end of the treatment period, total RNA was isolated from the cells and MALAT1 RNA levels were measured by quantitative real-time PC&. Human MALAT1 primer probe set RTS2737 (forward sequence AAGAGGCGGCGGAAGGT (SEQ ID NO: 2); reverse sequence […] (SEQ ID NO: 3); probe sequence […] (SEQ ID NO: 4)) was used to measure RNA levels. MALAT1 RNA levels were normalized according to total RNA content, as measured by RIBOGREEN®. Reduction of MALAT1 RNA is presented Table 3 below as percent MALAT1 RNA amount relative to untreated control (UTC) cells. The half maximal inhibitory concentration (IC50) of each modified oligonucleotide was calculated using a non-linear fit [inhibitor] vs. response—variable slope (four parameters) formula in GraphPad Prism 7.01.

[3] = test system: human MALAT1 RNA; experiment: MALAT1 RNA reduction in HEK-AGTR1 FAP cells, free uptake, 48 hours; settings: compared to parent unconjugated Compound No. 556089, 48 hours
Method: as §1, with “Table 4” for “Table 3”, “for 48” for “for 24”, “real-time PCR.” for “real-time PC&.”, “vs. response-variable” for “vs. response—variable”, “slope (three” for “slope (four”

[4] = in comparison to the unconjugated parent compound 556089

Compound No. 1229761: Angiotensin II peptide [N6-(2-azidoacetyl)-K]DRVYIHPF conjugated via linker to 5′-end of MALAT1 modified oligonucleotide TCAGCATTCTAATAGCAGC
IP1 accumulation ([1]; 0.0256 nM): 647 nM | IP1 accumulation ([1]; 0.128 nM): 688 nM | IP1 accumulation ([1]; 0.64 nM): 775 nM | IP1 accumulation ([1]; 3.2 nM): 1248 nM | IP1 accumulation ([1]; 16 nM): 3101 nM | IP1 accumulation ([1]; 80 nM): 8151 nM | IP1 accumulation ([1]; 400 nM): 11368 nM | IP1 accumulation ([1]; 2000 nM): 13100 nM | AGTR1 activation in words [1, 4]: show activation of the receptor | MALAT (% control) ([2]; 37 nM, 24 hours, relative to untreated control cells): 125 % control

Compound No. 1229762: Extended Angiotensin II peptide [N6-(2-azidoacetyl)-K]PPPAGSSPGDRVYIHPF conjugated via linker to 5′-end of MALAT1 modified oligonucleotide TCAGCATTCTAATAGCAGC
reduction of target RNA in words [3]: significantly greater reduction of target RNA | IP1 accumulation ([1]; 0.0256 nM): 721 nM | IP1 accumulation ([1]; 0.128 nM): 967 nM | IP1 accumulation ([1]; 0.64 nM): 1292 nM | IP1 accumulation ([1]; 3.2 nM): 2514 nM | IP1 accumulation ([1]; 16 nM): 5558 nM | IP1 accumulation ([1]; 80 nM): 13794 nM | IP1 accumulation ([1]; 400 nM): 16811 nM | IP1 accumulation ([1]; 2000 nM): 17550 nM | AGTR1 activation in words ([1]; compared to 1229761): enhanced activation | AGTR1 activation in words [1, 4]: show activation of the receptor | reduction of target RNA in words ([2]; compared to parent unconjugated Compound No. 556089, 24 hours): significantly greater reduction of target RNA
